## Ab-14 light chain CDR variants: yeast mating affinities

The measurements come from Li et al. 2023 (doi:10.1038/s41467-023-39022-2) through the FLAb antibody collection.

The target is the same throughout: PDVDLGDISGINAS, from the HR2 region of SARS-CoV-2 spike.

The variants keep the heavy chain, the linker and the frameworks of Ab-14 (scFv order VH, a 15-residue (Gly4Ser)3 linker, VL).
VH: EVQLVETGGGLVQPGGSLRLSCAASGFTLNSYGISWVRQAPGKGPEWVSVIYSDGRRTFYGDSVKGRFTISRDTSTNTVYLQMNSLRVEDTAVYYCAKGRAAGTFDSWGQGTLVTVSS
VL: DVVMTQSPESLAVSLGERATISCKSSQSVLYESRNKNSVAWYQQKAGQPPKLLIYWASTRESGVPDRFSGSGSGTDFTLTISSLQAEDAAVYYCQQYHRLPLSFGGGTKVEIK

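These sequences belong to a second round, designed from the earlier measurements on random variants of the parent. Group labels follow the data file (Ctrl: baseline library sampled from a position-specific scoring matrix, with some repeated check sequences; En: ensemble of fine-tuned language models; GP: Gaussian process model; HC: hill climbing; Gen: genetic algorithm; Gibbs: Gibbs sampling; a sequence that several methods proposed may carry one label only). The assay is AlphaSeq: two haploid yeast populations carry antibody and antigen on their surface. Pairs that bind mate more often; barcode pairs of the diploids are counted by sequencing. A regression on co-assayed BCL2-family reference pairs converts the normalised counts of each replicate to an apparent Kd. Mating was done six times.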

Each variant is given by its three light chain CDRs, as the data file delimits them; those of the parent are KSSQSVLYESRNKNSVA, WASTRES, QQYHRLPLS. The read-out is the apparent dissociation constant on a log10 scale (nM): the lower, the stronger. A mean of the replicates is given; it leaves out those without a signal. An entry "nd" has no value in the source: the pair was not observed among the diploids in that replicate. This suggests poor binding but is not conclusive.

CDR-L1 | CDR-L2 | CDR-L3 | group | replicates, log10 nM | mean log10 Kd (nM)
HLSQSVLYESRNKNSVA | GASTRES | QQYHRLPLS | GP_Gen | -0.18 -0.37 -0.40 -0.46 -0.40 -0.20 | -0.33
KITATMRFEQKQSNNIA | EVTQRSK | QQYYRLPLA | En_Gen | 0.41 0.31 0.19 -0.04 0.37 0.39 | 0.27
KCSPSVLYESRNKNNVA | EASTRES | QQYHRLPLS | Ctrl | -0.23 -0.28 -0.55 -0.65 -0.31 -0.39 | -0.40
NIYQAMHTLSQMKDNVA | DVNERGS | QQYFRLPLS | En_Gen | 0.47 0.34 0.17 0.18 0.62 0.59 | 0.40
KLSQSGLYESRNKNSVA | NASYRES | QQYHRLPLS | GP_Gen | 0.82 0.56 0.27 0.49 0.60 0.79 | 0.59
KLSQSDLYESRNSNNVA | NASTRES | QQYHRLPLS | GP_Gen | 0.00 -0.24 -0.29 -0.33 -0.06 -0.19 | -0.18
MFSQSVMIGSFYQNSVA | QTSTRES | QQYDRLPLS | En_HC | 0.91 1.18 0.83 0.72 0.97 0.99 | 0.93
KVSQSVLYEERNKNSVA | EASTRES | QQYHRLPLS | GP_Gen | -0.03 -0.11 -0.20 -0.26 -0.35 -0.09 | -0.17
TLTQVQGMESHNKNSVA | DLSMRGS | QQYHRLPLS | En_HC | 0.41 0.57 0.40 0.25 0.03 0.53 | 0.36
KSSQSNLYESRNKNSVA | WASTRER | QQYHRLPLS | Ctrl | 1.15 0.99 1.07 1.19 1.38 1.36 | 1.19
KNSQSVLGESRNKNSVA | NASLRES | QQPHRLPLS | Ctrl | 0.96 0.40 0.54 0.10 0.90 0.55 | 0.57
KLRQSTLYESRNPNSVA | WASTRCS | QQYHRLPLS | GP_HC | 0.66 0.54 0.21 0.45 0.60 0.88 | 0.56
HVSEMIFAQNKARNSVA | ENNTREA | QQYDRLPLS | En_HC | 2.24 2.84 1.81 2.07 2.62 2.39 | 2.33
KLSMGIEMNTRQNHNMA | EASLKPS | QQYNRLPFF | En_Gibbs | 0.41 0.13 0.20 0.26 0.28 0.36 | 0.27
NLQNLGMENSVWKNAIA | DVNIKEI | QQYWRLPLL | En_Gibbs | 1.20 0.95 0.65 1.16 0.81 1.45 | 1.04
KSSQAVLYESRNKNSVA | WASTREL | QQYMGLPLS | Ctrl | nd nd nd 3.04 nd 2.39 | 2.72
KSSQSVLYESRNKNSVA | WASTREN | QAYSRLPLS | Ctrl | nd nd nd 2.48 nd nd | 2.48

Continued, with the values leading:

replicates, log10 nM | mean log10 Kd (nM) | CDR-L1 | CDR-L2 | CDR-L3 | group
-0.59 0.20 -0.41 -0.50 0.01 0.37 | -0.15 | KVSQSHLYESRMKNSVA | DASTRCS | QQYHRLPLE | GP_HC
0.43 0.42 0.44 0.56 0.95 0.80 | 0.60 | KSSQSVLYESREKNSVA | GASTREY | QQYHRLPLS | Ctrl
0.23 0.31 -0.15 0.24 0.14 0.35 | 0.19 | KLEQGDLMESRNKNSVA | HASMRES | QQYHRLPLS | GP_Gibbs
0.25 0.34 -0.14 -0.07 -0.23 0.23 | 0.06 | KLPQMTMQESVSKNSVA | ELSTRGS | QQYHRLPLS | En_HC
1.62 1.80 1.85 1.40 1.41 1.68 | 1.63 | KIELDLTRYNASYSAIA | HETQKAQ | QQYSRLPLV | En_Gibbs
0.45 0.21 0.57 0.25 0.27 0.30 | 0.34 | KLQQSVDYESRNKNAVA | EASTREQ | QQYHQLPLS | GP_Gibbs
0.61 1.05 -0.07 0.30 0.67 0.57 | 0.52 | KSSQSFLQESRNDNSVA | GASTRES | QQYHRLPLS | Ctrl
1.00 0.64 0.76 0.83 1.10 0.95 | 0.88 | KIELDLTRYNAGHAAIA | HETMKAQ | QQYSRLPLI | En_Gibbs
nd nd nd nd nd nd | nd | KSSFSVLYESRNANSVA | WASTRES | QEYHRLPLS | Ctrl
nd nd nd nd 1.97 2.49 | 2.23 | MISQLYNMGQFAINSVA | QASIRNA | QQYDRLPLA | En_Gen
nd 2.21 2.34 2.59 1.69 1.98 | 2.16 | KISMLINMTFEESNNVA | EMVTREK | QQYNRLPLS | En_Gen
2.09 1.33 0.95 1.17 1.48 1.55 | 1.43 | KLSQSDLYESRNVNSVA | AASTREY | QQQHRLPLS | Ctrl
0.37 0.78 0.00 0.03 0.35 0.53 | 0.34 | HINDMLLGSEKIAHSIA | NTGVTSR | QQYQRLPLI | En_Gibbs
2.25 0.79 0.92 0.42 0.02 0.72 | 0.85 | ALNQKGFQLHGMRDSIA | HSDTRLA | QQYYRLPLA | En_Gibbs
1.99 1.55 2.41 1.80 1.17 1.60 | 1.75 | KLSTSWLYGKRNKNSVA | QASLRES | QQYHRLPLS | GP_Gibbs
nd nd nd nd nd nd | nd | KSSQSVSYESTNKNSVA | EASTRES | QQYHRLPLS | Ctrl
-0.32 -0.70 -0.43 -0.50 -0.58 -0.40 | -0.49 | KLSQLMLYESRNKNSVA | NASTRMS | QQYHRLPLS | GP_Gibbs
0.21 0.06 -0.07 -0.12 -0.12 0.27 | 0.04 | KDSQSVLYESRNKNSVA | GASTRES | QQYHRLPLS | Ctrl

Again, the first 2 entries without any signal:

CDR-L1	CDR-L2	CDR-L3	group	replicates, log10 nM	mean log10 Kd (nM)
KSSFSVLYESRNANSVA	WASTRES	QEYHRLPLS	Ctrl	nd nd nd nd nd nd	nd
KSSQSVSYESTNKNSVA	EASTRES	QQYHRLPLS	Ctrl	nd nd nd nd nd nd	nd

As a blank, each scFv also met three strains without target: over all light chain designs, 4% of these pairings were detected, typically at 2.64 and seldom below 1.59. In the paper, a design with two or fewer of six values counts as a poor binder. A sequence measured in both rounds can read differently, since the two assays cover different ranges.